Earlier results as cited in article PMC3515962.

By UniProt entry, the sequences of proteins in these tests, tags left out. Residues count along the entry.
UniProt P01589, 22-240, chain 1 of 3: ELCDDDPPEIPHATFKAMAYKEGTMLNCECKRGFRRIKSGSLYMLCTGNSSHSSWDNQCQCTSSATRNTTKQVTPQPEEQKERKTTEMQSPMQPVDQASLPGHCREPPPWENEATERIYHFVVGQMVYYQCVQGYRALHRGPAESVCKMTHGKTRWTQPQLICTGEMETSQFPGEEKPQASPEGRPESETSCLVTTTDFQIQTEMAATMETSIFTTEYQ
UniProt P60568, 21-153: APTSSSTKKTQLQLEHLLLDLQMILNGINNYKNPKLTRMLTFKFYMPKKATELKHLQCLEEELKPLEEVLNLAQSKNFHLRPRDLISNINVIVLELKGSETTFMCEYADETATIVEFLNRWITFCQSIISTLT

Target: IL-2 receptor (Homo sapiens) (UniProt P01589)
Test: radioligand binding

- Kd: 7.5 pM
Substance: TCGF (IL-2) (from UniProt P60568)
